Experimental data published in article PMC6209770 (Frontiers in Pharmacology, 2018).
Where “and” joins values, the source holds several entries; their conditions need not be identical. Equal entries are not always repeated. Where two headings read alike, the source gives them in different places. Marks after values point to notes of the source that are not given here.

Chains of the proteins cited; added tags and fusions are not shown.
UniProt P34969, whole entry: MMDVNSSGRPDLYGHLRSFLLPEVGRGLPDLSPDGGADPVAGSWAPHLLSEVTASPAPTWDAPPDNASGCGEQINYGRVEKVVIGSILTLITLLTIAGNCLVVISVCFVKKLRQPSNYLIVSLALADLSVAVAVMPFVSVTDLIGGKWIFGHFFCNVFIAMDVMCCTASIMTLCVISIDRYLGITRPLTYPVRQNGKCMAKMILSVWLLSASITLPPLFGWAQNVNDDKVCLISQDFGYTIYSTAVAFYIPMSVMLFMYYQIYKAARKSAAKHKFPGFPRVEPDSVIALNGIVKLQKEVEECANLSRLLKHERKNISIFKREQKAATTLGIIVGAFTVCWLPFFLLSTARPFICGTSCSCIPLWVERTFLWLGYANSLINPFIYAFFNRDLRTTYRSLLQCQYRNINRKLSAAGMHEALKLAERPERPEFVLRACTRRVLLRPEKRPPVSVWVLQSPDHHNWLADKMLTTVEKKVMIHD
UniProt P28223, whole entry: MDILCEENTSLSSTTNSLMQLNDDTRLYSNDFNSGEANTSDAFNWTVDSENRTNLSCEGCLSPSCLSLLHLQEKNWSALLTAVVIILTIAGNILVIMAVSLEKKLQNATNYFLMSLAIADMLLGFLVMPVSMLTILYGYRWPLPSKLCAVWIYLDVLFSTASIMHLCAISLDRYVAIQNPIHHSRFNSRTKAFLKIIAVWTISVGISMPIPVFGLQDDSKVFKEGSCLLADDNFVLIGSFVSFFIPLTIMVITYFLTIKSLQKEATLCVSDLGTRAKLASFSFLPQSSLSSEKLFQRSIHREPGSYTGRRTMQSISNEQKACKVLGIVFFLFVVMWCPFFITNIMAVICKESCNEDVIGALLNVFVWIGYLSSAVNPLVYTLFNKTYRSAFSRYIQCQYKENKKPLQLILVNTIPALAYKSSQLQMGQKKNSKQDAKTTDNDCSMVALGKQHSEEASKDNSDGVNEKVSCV
UniProt P14416, whole entry: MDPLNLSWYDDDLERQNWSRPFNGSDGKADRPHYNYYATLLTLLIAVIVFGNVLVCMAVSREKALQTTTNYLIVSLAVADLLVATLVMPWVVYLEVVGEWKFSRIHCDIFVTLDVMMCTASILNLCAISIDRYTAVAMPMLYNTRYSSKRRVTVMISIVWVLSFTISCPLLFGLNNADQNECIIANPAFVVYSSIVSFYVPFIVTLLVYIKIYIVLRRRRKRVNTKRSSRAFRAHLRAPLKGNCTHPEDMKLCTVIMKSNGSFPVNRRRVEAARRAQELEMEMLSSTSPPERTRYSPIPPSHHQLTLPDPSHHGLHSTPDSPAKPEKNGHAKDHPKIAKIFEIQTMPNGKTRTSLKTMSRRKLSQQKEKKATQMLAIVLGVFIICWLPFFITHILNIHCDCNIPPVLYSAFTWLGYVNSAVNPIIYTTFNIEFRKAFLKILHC
UniProt P08908, whole entry: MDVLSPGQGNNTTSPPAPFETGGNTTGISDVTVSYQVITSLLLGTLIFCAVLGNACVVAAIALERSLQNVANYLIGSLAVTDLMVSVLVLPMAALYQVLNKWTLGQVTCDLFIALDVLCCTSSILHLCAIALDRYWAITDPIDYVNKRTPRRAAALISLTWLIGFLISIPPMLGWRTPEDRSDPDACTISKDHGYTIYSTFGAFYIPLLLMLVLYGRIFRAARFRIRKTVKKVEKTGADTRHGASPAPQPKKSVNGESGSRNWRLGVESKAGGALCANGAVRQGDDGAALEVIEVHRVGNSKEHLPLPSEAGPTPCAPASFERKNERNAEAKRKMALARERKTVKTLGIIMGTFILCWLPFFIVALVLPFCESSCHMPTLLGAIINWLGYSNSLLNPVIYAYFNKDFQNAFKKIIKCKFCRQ

Assays:
5-HT7 receptor = 5-HT7 receptor (Homo sapiens, UniProt P34969); test: Functional assay, intrinsic activity at 5-HT7; format: cell-based
5-HT2A receptor = 5-HT2A receptor (Homo sapiens, UniProt P28223); test: cell-based; format: cell-based
mice [1] = test: Four plate test; conditions: mouse, in vivo
Experimental: The four plate test was performed on mice according to the method previously described ([Aron et al., 1971]; [Bourin et al., 2005]; [Pytka et al., 2016b]). Mice were placed individually in the four plate apparatus connected to the power source. […] If the mouse continued running, it received no new shock for the following 3 s.

mice [2] = test: Spontaneous locomotor activity; conditions: mouse, in vivo
mice [3] = test: Four plate test after pretreatment with pCPA, WAY-100635 or AMPT; conditions: mouse, in vivo
α2-adrenergic receptor = conditions: read-out: α2 receptors Ki ± SEM; rat cerebral cortex, [3H]-clonidine 0.2 nM
GABAA receptor = conditions: read-out: GABAA receptors Ki ± SEM; rat cerebral cortex, [3H]-muscimol 1 nM
mice [4] = conditions: mouse, in vivo
D2 receptor [5] = target: T1, D2 receptor (Homo sapiens, UniProt P14416); test: cell-based
[6] = in vivo; cited from earlier work
α1 = conditions: cited from earlier work
5-HT7 = conditions: cited from earlier work
5-HT2A = conditions: cited from earlier work
5-HT6 = conditions: cited from earlier work
5-HT3 receptors = conditions: cited from earlier work
rats = conditions: rat, in vivo; cited from earlier work
D2 receptor [7] = target: T1, D2 receptor; test: biochemical
mice [8] = test: Elevated plus maze test; conditions: mouse, in vivo
[9] = target: human serotonin 5-HT1A receptor (Homo sapiens, UniProt P08908); test: cAMP assay (TR-FRET), CHO-K1 cells
5-HT1A receptor [10] = target: T2, 5-HT1A receptor (Homo sapiens, UniProt P08908); test: SureFire ERK-phosphorylation AlphaLISA assay, CHO-5HT1A cells
5-HT1A receptor [11] = target: T2, 5-HT1A receptor; test: Tango LiveBLAzer β-arrestin recruitment assay, HTR1A-bla U2OS cells; conditions: for Emax: U2OS
5-HT1A receptor [12] = target: T2, 5-HT1A receptor; parameters: expressed in transfected cells; host or cells: CHO (CHO-5HT1A); method as in Kubacka et al., 2016; conditions: cited from earlier work
[13] = read-out: Antagonist mode Emax %

With `COc1ccccc1N1CCN(CCCOc2cc(C)ccc2C)CC1.Cl` [HBK-17, 1-[(2,5-dimethylphenoxy)propyl]-4-(2-methoxyphenyl)piperazine hydrochloride] the IC50 (5-HT7 receptor) was 123 nM, the Kb (5-HT7 receptor) was 39 nM and the Emax (5-HT7 receptor; read-out: Agonist mode Emax %) was 18%. For the same compound, the Emax (5-HT7 receptor; [13]) was 11%, the “5-HT2A blockade weaker than reference compound” value (5-HT2A receptor) was 1228.1 fold and the IC50 (5-HT2A receptor) was 11200 nM. For the same compound, the Kb (5-HT2A receptor) was 700 nM, the Emax (5-HT2A receptor; read-out: Agonist mode Emax %) was 1% and the Emax (5-HT2A receptor; [13]) was 58%. The “Increase in the number of punished crossings vs non-treated control” value (mice [1]) was 70.9%, the “Influence on locomotor activity” value (mice [2]) was “did not influence” and the “Number of crossings ± SEM” value (mice [2]; 5 mg/kg) was 30.9 and 23.3 and 41.1. For the same compound, the “Activity of HBK-17 (punished crossings) after pCPA pretreatment” value (mice [3]) was “abolished”, the “Effect of HBK-17 (punished crossings) after AMPT pretreatment” value (mice [3]) was “did not influence” and the “Effect of HBK-17 (punished crossings) after WAY-100635 pretreatment” value (mice [3]) was “antagonized”. For the same compound, the “Increase in number of punished crossings” value (mice [3]) was 76%, the “Increase in number of punished crossings vs non-treated control” value (mice [3]) was 84.2% and 60.0% and the Ki (α2-adrenergic receptor) was 17800 ± 1.5 nM. The Ki (GABAA receptor) was > 10000 nM, the “Latency time to the first hind paw or/and jumping response” value (mice [4]) was “did not increase” and the IC50 (D2 receptor [5]) was 22.4 nM. It also gave a Kb (D2 receptor [5]) of 6.63 nM, an Emax (D2 receptor [5]; read-out: Agonist mode Emax %) of 2% and an Emax (D2 receptor [5]; [13]) of 0%. For the same compound, the “ED50, sedative properties” value [6] was 15.0 mg/kg, the “Affinity for α1” value (α1) was “high affinity” and the “Affinity for 5-HT7” value (5-HT7) was “high affinity”. The “Affinity for 5-HT2A” value (5-HT2A) was “moderate”, the “Affinity for 5-HT6” value (5-HT6) was “very low” and the “Affinity for 5-HT3 receptors” value (5-HT3 receptors) was “very low”. The “Antiarrhythmic properties in adrenaline-induced arrhythmia” value (rats) was “strong antiarrhythmic properties”, the Ki (D2 receptor [7]) was 51.4 ± 0.7 nM and the “Increase in number of open arm entries vs non-treated control” value (mice [8]) was 28.6%. The “Increase in time spent in the open arms vs non-treated control” value (mice [8]) was 38.9%, the IC50 [9] was 158 nM and the Kb [9] was 39 nM. For the same compound, the Emax ([9]; CHO-K1, read-out: Agonist mode Emax %) was 1%, the Emax ([9]; CHO-K1, read-out: Antagonist mode Emax %) was 4% and the EC50 (5-HT1A receptor [10]) was 14.1 nM. The IC50 (5-HT1A receptor [10]) was 200 nM, the Kb (5-HT1A receptor [10]) was 29 nM and the Emax (5-HT1A receptor [10]; read-out: Agonist mode Emax %) was 40%. It also gave an Emax (5-HT1A receptor [10]; [13]) of 35%, an EC50 (5-HT1A receptor [11]) of 324 nM and an Emax (5-HT1A receptor [11]; read-out: Agonist mode Emax %) of 94%. For the same compound, the Emax (5-HT1A receptor [11]; [13]) was 29%, the “Agonist mode Emax %” value (5-HT1A receptor [12]) was 1^a % and the “Antagonist mode Emax %” value (5-HT1A receptor [12]) was 4^a %. For the same compound, the “Antagonist mode pIC50” value (5-HT1A receptor [12]) was 8^a and the Kb (5-HT1A receptor [12]; read-out: Antagonist mode Kb) was 6.9 nM.
